Key:
Format in all cases: binding
HLA-DRB1*04:01 monomer = biological target: T1, HLA-DRB1*04:01 monomer (Homo sapiens, UniProt P01903+P01911, A100K/A169T/F76Y/I96L/K127E/L162R/M171V/N62H/P40V/Q125Y/R42H/S133A/S149N/S66Y/V115G/V209L/W38E)
T1 construct: the extracellular domain of the MHC class II α chain and β chain to which leucine zipper motifs are added; leucine zipper motif

HLA-DRB1*03:01 monomer = biological target: T2, HLA-DRB1*03:01 monomer (Homo sapiens, UniProt P01903+P01911, A100K/A102G/A103R/A169T/F55Y/I96L/K41T/L162R/M171V/P40S/Q125H/Q178H/Q39Y/R42S/S66N/T106N/T262R/W38E/Y61H)
T2 construct: the extracellular domain of the MHC class II α chain and β chain to which leucine zipper motifs are added; leucine zipper motif

HLA-DRB1*01:01 tetramer = HLA-DRB1*01:01 tetramer (Homo sapiens, UniProt P01903+P01911, A100R/D57E/F55L/F60I/F76Y/I96L/L162R/M171V/P40L/Q125E/R42F/V115G/Y59C)

CC[C@H](C)[C@H](NC(=O)[C@H](CCCNC(=N)N)NC(=O)[C@@H](NC(=O)[C@H](CC(C)C)NC(=O)[C@H](CC(C)C)NC(=O)[C@H](Cc1ccccc1)NC(=O)[C@H](Cc1ccccc1)NC(=O)CNC(=O)[C@H](C)N)[C@@H](C)O)C(=O)N[C@@H](CC(C)C)C(=O)N[C@H](C(=O)N[C@H](C(=O)N1CCC[C@H]1C(=O)N[C@@H](CCC(N)=O)C(=O)N[C@@H](CO)C(=O)O)[C@@H](C)CC)[C@@H](C)O
% pept exch (HLA-DRB1*04:01 monomer): 78.22%
% pept exch (HLA-DRB1*03:01 monomer): 83.59%
% pept exch (HLA-DRB1*01:01 tetramer): 88.7%

Reference: patent publication US20220177542A1 (priority 2020, published 2022)
